Test results taken from ChEMBL document CHEMBL5344485, “Discovery of CRN04894: A Novel Potent Selective MC2R Antagonist” (ACS Med Chem Lett, 2024).
Active and inactive are the calls of the source. No cut-off for these calls is given here.

Protein sequences, listed by entry. Tags and fused reporters are not part of them. Lines headed by an entry give the natural chain unless they say otherwise; changes in a name come on top.
UniProt Q01718: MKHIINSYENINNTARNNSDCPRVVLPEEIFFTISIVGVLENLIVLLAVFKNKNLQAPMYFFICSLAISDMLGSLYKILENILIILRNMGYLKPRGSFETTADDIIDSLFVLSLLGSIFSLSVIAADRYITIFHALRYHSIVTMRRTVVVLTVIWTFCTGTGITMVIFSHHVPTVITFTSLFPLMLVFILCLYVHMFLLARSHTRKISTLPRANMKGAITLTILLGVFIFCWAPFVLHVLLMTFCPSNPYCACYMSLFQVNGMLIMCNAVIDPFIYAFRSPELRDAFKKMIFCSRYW
UniProt P32245, whole entry: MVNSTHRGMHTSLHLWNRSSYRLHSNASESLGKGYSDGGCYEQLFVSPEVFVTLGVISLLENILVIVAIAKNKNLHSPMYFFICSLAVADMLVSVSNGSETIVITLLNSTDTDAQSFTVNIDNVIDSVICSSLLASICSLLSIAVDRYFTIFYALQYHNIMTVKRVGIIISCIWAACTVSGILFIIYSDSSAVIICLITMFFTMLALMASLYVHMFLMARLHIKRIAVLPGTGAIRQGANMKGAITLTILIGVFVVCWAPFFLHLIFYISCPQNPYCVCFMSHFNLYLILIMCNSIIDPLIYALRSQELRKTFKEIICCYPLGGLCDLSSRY
UniProt P28222, whole entry: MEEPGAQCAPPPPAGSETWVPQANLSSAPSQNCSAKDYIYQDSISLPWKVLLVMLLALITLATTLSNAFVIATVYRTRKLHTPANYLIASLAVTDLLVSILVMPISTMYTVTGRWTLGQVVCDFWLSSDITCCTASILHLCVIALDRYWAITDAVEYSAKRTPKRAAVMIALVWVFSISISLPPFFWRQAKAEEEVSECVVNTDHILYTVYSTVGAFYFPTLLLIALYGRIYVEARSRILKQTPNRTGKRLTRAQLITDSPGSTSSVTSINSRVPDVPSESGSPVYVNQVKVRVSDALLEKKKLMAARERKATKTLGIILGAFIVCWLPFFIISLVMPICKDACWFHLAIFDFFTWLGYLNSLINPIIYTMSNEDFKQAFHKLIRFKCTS

Legend:
[1] = molecular target: T1, Adrenocorticotropic hormone receptor (Homo sapiens, UniProt Q01718); experiment: Antagonist activity at MC2R (unknown origin); assay type: functional; conditions: filed as antagonist
[2] = molecular target: T1, Adrenocorticotropic hormone receptor; experiment: Antagonist activity at human MC2R expressed in CHO-K1 cells membrane assessed as ACTH(1-24) stimulated cAMP accumulation by measuring fold change at 10 uM relative to ACTH stimulation; assay type: functional, cell membranes; conditions: filed as antagonist
Melanocortin receptor 4 = Melanocortin receptor 4 (Homo sapiens, UniProt P32245); experiment: Antagonist activity at human MC4R assessed as fold change at 10 uM; assay type: cell membranes; conditions: Membrane, filed as antagonist
CHO-K1 [3] = experiment: Antagonist activity at rat MC2R expressed in CHO-K1 cells membrane assessed as ACTH(1-24) stimulated cAMP accumulation by measuring fold change at 3 uM relative to ACTH stimulation; assay type: cell membranes; conditions: filed as antagonist
Homo sapiens [4] = species on record: Homo sapiens; experiment: Inhibition of sodium channel (unknown origin) at 10 uM relative to control
CHO-K1 [5] = experiment: Antagonist activity at dog MC2R assessed as reduction in ACTH (1-24) stimulated cAMP accumulation; assay type: cell membranes; conditions: Canis lupus familiaris, Membrane, filed as antagonist, time 30.0 min
CHO-K1 [6] = experiment: Antagonist activity at rat MC2R expressed in CHO-K1 cells membrane assessed as cAMP accumulation preincubated for 30 mins followed by ACTH (1-24) addition and measured after 30 mins by HTRF based assay; assay type: cell membranes; conditions: filed as antagonist, time 60.0 min
[7] = molecular target: 5-hydroxytryptamine receptor 1B (Homo sapiens, UniProt P28222); experiment: Inhibition of 5-HT1B (unknown origin) at 10 uM relative to control
Homo sapiens [8] = species on record: Homo sapiens; experiment: Selectivity ratio of IC50 for 5-HT1B (unknown origin) to IC50 for human MC2R
Rattus norvegicus = experiment: In vivo antagonist activity at MC2R in Sprague-Dawley rat assessed as reduction in ACTH-stimulated corticosterone secretion at 3 to 30 mg/kg, po administered as single dose and measured after 24 to 48 hrs by LC-MS/MS analysis; assay type: functional, organism-based; conditions: dose 3-30 mg/kg, time 24-48 hrs

NCc1cc(C(F)(F)F)ccc1N1CCN(C(=O)c2ccc(Cl)cc2Cl)CC1
Kb [1]: 490 nM

C[C@@H]1CN(C(=O)c2ccc(C(F)(F)F)cc2Cl)CCN1c1ccc(C(F)(F)F)cc1CN
fold change (FC) [2]: 2.1

CC[C@@H]1CN(C(=O)c2ccc(C(F)(F)F)cc2Cl)CCN1c1ccc(C(F)(F)F)cc1CN
fold change (FC) (Melanocortin receptor 4): 0 | fold change (FC) (CHO-K1 [3]): 1 | fold change (FC) [2]: 2.6

CCOc1ccccc1-c1ccc(N2CCN(C(=O)C3(C(F)(F)F)CCC3)C[C@H]2CC)c(C(=O)N[C@@H]2CN3CCC2CC3)n1 [ATUMELNANT]
inhibition (Homo sapiens [4]): > 70% | Kb (CHO-K1 [5]): 0.25 nM | Kb (CHO-K1 [6]): 0.23 nM | inhibition [7]: > 70% | Ratio IC50 (Homo sapiens [8]): > 2500 | Activity (Rattus norvegicus): inactive

CC[C@@H]1CN(C(=O)c2ccc(C(F)(F)F)cc2Cl)CCN1c1ccc(C(F)(F)F)cc1CNC[C@H](C)O
fold change (FC) (CHO-K1 [3]): 1.5 | Kb (CHO-K1 [6]): 252 nM

CC[C@@H]1CN(C(=O)c2ccc(C(F)(F)F)cc2Cl)CCN1c1ccc(C(F)(F)F)cc1C(=O)NCCN
Kb (CHO-K1 [6]): 78 nM

C[C@H]1CN(C(=O)c2ccc(C(F)(F)F)cc2Cl)CCN1c1ccc(C(F)(F)F)cc1CN
fold change (FC) [2]: 0.6
